Test: in vitro
Conditions: dog, MDCK-MDR1

In the case of `CC(=O)N1CCN(c2ccc(OCC3COC(Cn4ccnc4)(c4ccc(Cl)cc4Cl)O3)cc2)CC1` (stereo not shown), the Papp at 2 h is reported as 120 ×10⁻⁶ cm/s.
